From patent publication US20250188058A1, “NEW FORMS OF N-(5-((6,7-DIMETHOXYQUINOLIN-4-YL)OXY)PYRIDIN-2-YL)-1-PROPYL-4-(2,2,2-TRIFLUOROETHOXY)-1H-PYRAZOLE-3-CARBOXAMIDE HYDROCHLORIDE” (QURIENT CO., LTD., priority 2022, published 2025) come the findings set out here.

One series is described as follows: Aqueous solubility of crystalline salts of Q702 (slurried overnight in deionised water, HPLC). The settings on record: crystalline salts slurried overnight in deionised water (pH = 6.8), solution pH measured.
Consider `CCCn1cc(OCC(F)(F)F)c(C(=O)Nc2ccc(Oc3ccnc4cc(OC)c(OC)cc34)cn2)n1.O=S(=O)(O)CCS(=O)(=O)O` [Edisylate], for which the pH of solution turned out to be 2.31. As to `CCCn1cc(OCC(F)(F)F)c(C(=O)Nc2ccc(Oc3ccnc4cc(OC)c(OC)cc34)cn2)n1.O=C(O)CC(=O)O` [Malonate], the pH of solution amounted to 3.38. Regarding `CCCn1cc(OCC(F)(F)F)c(C(=O)Nc2ccc(Oc3ccnc4cc(OC)c(OC)cc34)cn2)n1.O=C(O)C(=O)O` [Oxalate], the pH of solution was 3.04. Regarding `CCCn1cc(OCC(F)(F)F)c(C(=O)Nc2ccc(Oc3ccnc4cc(OC)c(OC)cc34)cn2)n1.O=P(O)(O)O` [Phosphate], the pH of solution came out at 2.53. `CCCn1cc(OCC(F)(F)F)c(C(=O)Nc2ccc(Oc3ccnc4cc(OC)c(OC)cc34)cn2)n1.Cl` [Q702 HCl salt, N-(5-((6,7-dimethoxyquinolin-4-yl)oxy)pyridin-2-yl)-1-propyl-4-(2,2,2-trifluoroethoxy)-1H-pyrazole-3-carboxamide hydrochloride]: the pH of solution was determined as 2.68.

Assay in a further series: not given
As to conditions: pH 6.8.
As to `O=C(O)CCC(=O)C(=O)O` [Ketoglutarate], the “Aq Solub” value is recorded as 1.93 ± 0.04 mg/mL.
